Test results published in ChEMBL document CHEMBL4823248, “Pyrazole Agonist of the Apelin Receptor Improves Symptoms of Metabolic Syndrome in Mice” (J Med Chem, 2021).

Target: T1, Apelin receptor (Mus musculus) (UniProt Q9WV08)
T1 sequence (whole entry): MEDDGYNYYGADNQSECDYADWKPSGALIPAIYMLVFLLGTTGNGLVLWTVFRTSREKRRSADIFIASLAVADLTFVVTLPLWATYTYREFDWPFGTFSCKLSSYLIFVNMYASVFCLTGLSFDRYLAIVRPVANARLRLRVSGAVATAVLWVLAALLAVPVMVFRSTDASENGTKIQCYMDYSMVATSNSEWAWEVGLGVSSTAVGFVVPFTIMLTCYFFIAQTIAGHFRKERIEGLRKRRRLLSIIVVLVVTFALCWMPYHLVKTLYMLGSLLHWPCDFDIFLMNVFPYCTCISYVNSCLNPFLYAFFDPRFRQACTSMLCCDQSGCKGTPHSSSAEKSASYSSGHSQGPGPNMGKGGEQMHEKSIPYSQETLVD
Test: Agonist activity at Galphaq16-fused mouse APJ receptor expressed in CHO cells assessed as stimulation of Ca2+ mobilization by measuring maximum efficacy incubated for 1 hr by Calcium 5-dye based fluorescence based assay relative to control
Type: cell-based
Details: filed as agonist

Emax: 94%
Compound: COc1cccc(OC)c1-c1cc(C(=O)N[C@@H](CCN2CCCCC2)CC(=O)NC2CCC2)nn1C1CCCC1.Cl
